Laboratory results as given in patent US9708336B2, “Metallo-beta-lactamase inhibitors” (priority 2014, dated 2017).

Protein sequences, listed by entry. Tags and fused reporters are not part of them. Lines headed by an entry give the natural chain unless they say otherwise; changes in a name come on top.
UniProt P52699: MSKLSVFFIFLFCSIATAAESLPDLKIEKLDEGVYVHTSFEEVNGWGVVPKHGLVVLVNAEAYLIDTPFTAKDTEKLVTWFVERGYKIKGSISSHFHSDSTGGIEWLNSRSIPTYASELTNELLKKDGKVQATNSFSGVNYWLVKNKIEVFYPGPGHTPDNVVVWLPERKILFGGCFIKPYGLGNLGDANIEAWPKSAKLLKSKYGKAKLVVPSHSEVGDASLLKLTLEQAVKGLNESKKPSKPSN

Assays:
VIM-1 = VIM-1 (Pseudomonas aeruginosa (strain ATCC 15692 / DSM 22644 / CIP 104116 / JCM 14847 / LMG 12228 / 1C / PRS 101 / PAO1), UniProt A0A0F7KYQ8); assay: Enzyme activity: determination of IC50, fluorescence assay with CCF2-FA substrate (VIM-1); assay type: biochemical
IMP-1 = IMP-1 (Serratia marcescens, UniProt P52699); assay type: biochemical
[1] = VIM-1 IC50, fluorescence assay with CCF2-FA substrate
[2] = fluorescence assay with CCF2-FA substrate
[3] = VIM-1 IC50, VIM-1 enzyme, CCF2-FA fluorescence assay
[4] = VIM-1 IC50, VIM-1 enzyme, CCF2-FA substrate

SMILES | IC50 (VIM-1; [1]) [µM] | further results
NS(=O)(=O)c1cccc(-c2nccs2)c1-c1nn[nH]n1 [Example 35, 2-(2H-tetrazol-5-yl)-3-(1,3-thiazol-2-yl)benzenesulfonamide] | 1.01 | –
Cn1ccnc1-c1cccc(S(N)(=O)=O)c1-c1nn[nH]n1 [Example 38, 3-(1-methyl-1H-imidazol-2-yl)-2-(2H-tetrazol-5-yl)benzenesulfonamide] | 5.54 | –
NS(=O)(=O)c1cccc(-c2ncccn2)c1-c1nn[nH]n1 [Example 39, 3-pyrimidin-2-yl-2-(2H-tetrazol-5-yl)benzenesulfonamide] | 8.14 | –
Cn1cncc1-c1cccc(S(N)(=O)=O)c1-c1nn[nH]n1 [Example 43, 3-(1-methyl-1H-imidazol-5-yl)-2-(2H-tetrazol-5-yl)benzenesulfonamide] | 2.46 | –
CN(C(=O)c1ccc(-c2cccc(S(N)(=O)=O)c2-c2nn[nH]n2)cc1)C1CCOCC1 [Example 77, N-methyl-3′-sulfamoyl-N-(tetrahydro-2H-pyran-4-yl)-2′-(2H-tetrazol-5-yl)biphenyl-4-carboxamide] | 2.9 | –
NS(=O)(=O)c1cccc(-c2ccc(OCCN3CCCCC3)cc2)c1-c1nn[nH]n1 [Example 89, 4′-(2-piperidin-1-ylethoxy)-2-(2H-tetrazol-5-yl)biphen-3-sulfonamide] | 1.02 | –
NS(=O)(=O)c1cccc(-c2ccnc(CO)c2)c1-c1nn[nH]n1 [Example 92, 3-[2-(hydroxymethyl)pyridin-4-yl]-2-(2H-tetrazol-5-yl)benzenesulfonamide] | – | IC50 (IMP-1; [2]): 2.53 µM
NS(=O)(=O)c1cccc(-c2csc(CN3CCOCC3)c2)c1-c1nn[nH]n1 [Example 103, 3-[5-(morpholin-4-ylmethyl)thiophen-3-yl]-2-(2H-tetrazol-5-yl)benzenesulfonamide] | 2.64 | –
CCOC(=O)CCn1cc(-c2cccc(S(N)(=O)=O)c2-c2nn[nH]n2)cn1 [Example 110, ethyl 3-{4-[3-sulfamoyl-2-(2H-tetrazol-5-yl)phenyl]-1H-pyrazol-1-yl}propanoate] | 1.36 | –
CN1CCN(c2cc(-c3cccc(S(N)(=O)=O)c3-c3nnn[nH]3)ccn2)CC1 [Example 116, 3-(2-(4-methylpiperazin-1-yl)pyridin-4-yl)-2-(1H-tetrazol-5-yl)benzenesulfonamide] | 1.24 | –
NS(=O)(=O)c1cccc(-c2ccc3nonc3c2)c1-c1nnn[nH]1 [Example 130, 3-(benzo[c][1,2,5]oxadiazol-5-yl)-2-(1H-tetrazol-5-yl)benzenesulfonamide] | 0.0418 | –
NS(=O)(=O)c1cccc(C2=CCS(=O)(=O)CC2)c1-c1nnn[nH]1 [Example 141, 3-(1,1-dioxido-3,6-dihydro-2H-thiopyran-4-yl)-2-(1H-tetrazol-5-yl)benzenesulfonamide] | 2.58 | –
NS(=O)(=O)c1cccc(CCc2cccnc2)c1-c1nnn[nH]1 [Example 143, 3-(2-pyridin-3-ylethyl)-2-(1H-tetrazol-5-yl)benzenesulfonamide] | 0.38 | –
NS(=O)(=O)c1cccc(C#CCN2CCC(=O)CC2)c1-c1nn[nH]n1 [Example 146, 3-[3-(4-oxopiperidin-1-yl)prop-1-yn-1-yl]-2-(2H-tetrazol-5-yl)benzenesulfonamide] | 2.8 | –
NS(=O)(=O)c1nccc(-c2ccc(C(=O)NC3CCOCC3)cc2)c1-c1nnn[nH]1 [Example 186, 4-(2-Sulfamoyl-3-(1H-tetrazol-5-yl)pyridin-4-yl)-N-(tetrahydro-2H-pyran-4-yl)benzamide] | 1.86 | –
NS(=O)(=O)c1nccc(-c2cccnc2)c1-c1nnn[nH]1 [Example 193, 3′-(1H-tetrazol-5-yl)-[3,4′-bipyridine]-2′-sulfonamide] | 0.813 | –
CN(C)c1ccc(-c2ccnc(S(N)(=O)=O)c2-c2nn[nH]n2)cn1 [Example 211, 6-(dimethylamino)-3′-(2H-tetrazol-5-yl)-[3,4′-bipyridine]-2′-sulfonamide] | 0.242 | –
NS(=O)(=O)c1nccc(N2CCC(CN3CCOCC3)CC2)c1-c1nnn[nH]1 [Example 224, 4-[4-(morpholin-4-ylmethyl)piperidin-1-yl]-3-(1H-tetrazol-5-yl)pyridine-2-sulfonamide] | 1.18 | IC50 (IMP-1; [2]): 1.09 µM
NS(=O)(=O)c1nccc(NCc2ccccc2)c1-c1nnn[nH]1 [Example 235, 4-(benzylamino)-3-(1H-tetrazol-5-yl)pyridine-2-sulfonamide] | 1.73 | –
COC(=O)c1ccc(-c2nn[nH]n2)c(S(N)(=O)=O)c1 [Example 255, Methyl 3-sulfamoyl-4-(2H-tetrazol-5-yl)benzoate] | – | IC50 (VIM-1; [3]): 20 µM; IC50 (IMP-1; IMP-1 enzyme, CCF2-FA fluorescence assay): 20 µM

SMILES | IC50 (VIM-1; [1]) [µM] | further results
NS(=O)(=O)c1cccc(-c2cnc3[nH]ncc3c2)c1-c1nn[nH]n1 [Example 309, 3-(1H-pyrazolo[3,4-b]pyridin-5-yl)-2-(2H-tetrazol-5-yl)benzenesulfonamide] | – | IC50 (VIM-1; [3]): 0.0315 µM
Nc1ncc(-c2cccc(S(N)(=O)=O)c2-c2nn[nH]n2)cc1F [Example 314, 3-(6-amino-5-fluoropyridin-3-yl)-2-(2H-tetrazol-5-yl)benzenesulfonamide] | – | IC50 (VIM-1; [3]): 0.0269 µM
CC(C(=O)O)N(C)Cc1ccc(-c2cccc(S(N)(=O)=O)c2-c2nnn[nH]2)cc1 (centres unmarked) [Example 367, N-methyl-N-{[3′-sulfamoyl-2′-(1H-tetrazol-5-yl)biphenyl-4-yl]methyl}alanine] | – | IC50 (VIM-1; [3]): 1 µM
CN1C2CCC1CC(NCc1ccc(-c3cccc(S(N)(=O)=O)c3-c3nnn[nH]3)cc1)C2 (centres unmarked) [Example 370, 4′-{[(8-methyl-8-azabicyclo[3.2.1]oct-3-yl)amino]methyl}-2-(1H-tetrazol-5-yl)biphenyl-3-sulfonamide] | – | IC50 (VIM-1; [3]): 0.624 µM
NS(=O)(=O)c1ccc2ccccc2c1-c1nnn[nH]1 [Example 399, 1-(1H-tetrazol-5-yl)naphthalene-2-sulfonamide] | – | IC50 (VIM-1; [3]): 12.4 µM
NS(=O)(=O)c1cccc(-c2nc(-c3ccncc3)cs2)c1-c1nnn[nH]1 [Example 407, 3-[4-(4-pyridyl)thiazol-2-yl]-2-(1H-tetrazol-5-yl)benzenesulfonamide] | – | IC50 (VIM-1; [3]): 0.133 µM
NS(=O)(=O)c1c(C(F)(F)F)ccc(-c2ccc3nccn3c2)c1-c1nnn[nH]1 [Example 481, 3-imidazo[1,2-a]pyridin-6-yl-2-(1H-tetrazol-5-yl)-6-(trifluoromethyl)benzenesulfonamide] | – | IC50 (VIM-1; [3]): 0.00042 µM
NS(=O)(=O)c1c(C(F)(F)F)ccc(C2CCC2)c1-c1nnn[nH]1 [Example 492, 3-cyclobutyl-2-(1H-tetrazol-5-yl)-6-(trifluoromethyl)benzenesulfonamide] | – | IC50 (VIM-1; [4]): 0.0123 µM
Nc1nc2cncc(-c3ccc(C(F)(F)F)c(S(N)(=O)=O)c3-c3nnn[nH]3)c2[nH]1 [Example 571, 3-(2-amino-1H-imidazo[4,5-c]pyridin-7-yl)-2-(1H-tetrazol-5-yl)-6-(trifluoromethyl)benzenesulfonamide] | – | IC50 (VIM-1; [4]): 0.00506 µM
NS(=O)(=O)c1c(CC2CCNCC2)ccc(-c2ccc(C3CCNC3)cc2)c1-c1nn[nH]n1 (centres unmarked) [Example 588, 4-(piperidin-4-ylmethyl)-4′-(pyrrolidin-3-yl)-2-(2H-tetrazol-5-yl)-[1,1′-biphenyl]-3-sulfonamide] | – | IC50 (VIM-1; [4]): 0.00261 µM
NS(=O)(=O)c1cccc(-c2ccc(NC3CCNC3)nc2)c1-c1nnn[nH]1 (centres unmarked) [Example 628, 3-[6-(pyrrolidin-3-ylamino)-3-pyridyl]-2-(1H-tetrazol-5-yl)benzenesulfonamide] | – | IC50 (VIM-1; [4]): 0.164 µM
NCCNc1ccc(-c2cccc(S(N)(=O)=O)c2-c2nnn[nH]2)cn1 [Example 634, 3-[6-(2-aminoethylamino)-3-pyridyl]-2-(1H-tetrazol-5-yl)benzenesulfonamide] | – | IC50 (VIM-1; [4]): 0.163 µM
NS(=O)(=O)c1c(C(F)(F)F)ccc(N2CCN3C(=O)OCC3C2)c1-c1nnn[nH]1 (centres unmarked) [Example 667, 3-(3-oxotetrahydro[1,3]oxazolo[3,4-a]pyrazin-7(1H)-yl)-2-(1H-tetrazol-5-yl)-6-(trifluoromethyl)benzenesulfonamide] | – | IC50 (VIM-1; [4]): 0.00148 µM
NS(=O)(=O)c1c(C(F)(F)F)ccc([C@H]2CC[C@H](NC3CC[C@H]4NCC[C@@H]34)CC2)c1-c1nnn[nH]1 (stereo partly drawn) [Example 692, 3-{4-[(3aR,6aR)-octahydrocyclopenta[b]pyrrol-4-ylamino]cyclohexyl}-2-(1H-tetrazol-5-yl)-6-(trifluoromethyl)benzene sulfonamide] | – | IC50 (VIM-1; [4]): 0.0127 µM
NC1CCN(C2CCN(c3ccc(C(F)(F)F)c(S(N)(=O)=O)c3-c3nnn[nH]3)CC2)C1 (centres unmarked) [Example 768, 3-[4-(3-aminopyrrolidin-1-yl)piperidin-1-yl]-2-(1H-tetrazol-5-yl)-6-(trifluoromethyl) benzenesulfonamide] | 0.000906 | –
NC1CCCC1N1CCC(c2ccc(-c3ccc(C(F)(F)F)c(S(N)(=O)=O)c3-c3nnn[nH]3)cc2)CC1 (centres unmarked) [Example 791, 4′-[1-(2-aminocyclopentyl)piperidin-4-yl]-2-(1H-tetrazol-5-yl)-4-(trifluoromethyl)biphenyl-3-sulfonamide] | 0.0111 | –
NC1CCCC(N2CCC(c3ccc(-c4ccc(C(F)(F)F)c(S(N)(=O)=O)c4-c4nnn[nH]4)cc3)CC2)C1 (centres unmarked) [Example 798, 4′-[1-(3-aminocyclohexyl)piperidin-4-yl]-2-(1H-tetrazol-5-yl)-4-(trifluoromethyl)biphenyl-3-sulfonamide] | 0.0133 | –
NS(=O)(=O)c1c(C(F)(F)F)ccc(-c2ccc(C3CN(CC4CCNCC4)C3)cc2)c1-c1nnn[nH]1 [Example 804, 4′-[1-(piperidin-4-ylmethyl)azetidin-3-yl]-2-(1H-tetrazol-5-yl)-4-(trifluoromethyl)biphenyl-3-sulfonamide] | 0.00872 | –
NC1CCC(N2CC(c3ccc(-c4ccc(C(F)(F)F)c(S(N)(=O)=O)c4-c4nnn[nH]4)cc3)C2)CC1 (centres unmarked) [Example 809, 4′-[1-(4-aminocyclohexyl)azetidin-3-yl]-2-(1H-tetrazol-5-yl)-4-(trifluoromethyl)biphenyl-3-sulfonamide] | 0.0279 | –

Read-outs that look alike come from different tables or passages of the source.
